This note sets out measurements from patent EP1383793B1 (priority 2000, dated 2001).

By UniProt entry, the sequences of proteins in these tests, tags left out. Residues count along the entry.
UniProt P08069, 741-1367 limits assumed: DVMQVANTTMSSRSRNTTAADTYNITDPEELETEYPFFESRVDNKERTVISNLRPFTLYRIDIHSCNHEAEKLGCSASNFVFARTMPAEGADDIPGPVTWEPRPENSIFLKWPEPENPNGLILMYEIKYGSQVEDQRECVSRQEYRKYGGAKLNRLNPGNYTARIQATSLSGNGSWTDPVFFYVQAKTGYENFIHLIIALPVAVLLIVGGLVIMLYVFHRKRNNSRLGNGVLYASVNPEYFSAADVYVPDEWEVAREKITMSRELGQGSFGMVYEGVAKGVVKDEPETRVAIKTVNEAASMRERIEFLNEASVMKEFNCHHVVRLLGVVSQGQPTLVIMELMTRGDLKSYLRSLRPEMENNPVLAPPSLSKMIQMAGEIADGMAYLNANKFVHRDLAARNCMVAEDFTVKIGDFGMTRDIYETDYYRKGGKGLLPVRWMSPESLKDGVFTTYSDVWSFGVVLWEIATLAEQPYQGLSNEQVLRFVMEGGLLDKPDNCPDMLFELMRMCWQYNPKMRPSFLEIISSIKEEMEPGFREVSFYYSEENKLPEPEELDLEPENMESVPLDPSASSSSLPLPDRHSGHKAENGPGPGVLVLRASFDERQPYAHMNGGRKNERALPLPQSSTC
UniProt P08069, 31-736 limits assumed: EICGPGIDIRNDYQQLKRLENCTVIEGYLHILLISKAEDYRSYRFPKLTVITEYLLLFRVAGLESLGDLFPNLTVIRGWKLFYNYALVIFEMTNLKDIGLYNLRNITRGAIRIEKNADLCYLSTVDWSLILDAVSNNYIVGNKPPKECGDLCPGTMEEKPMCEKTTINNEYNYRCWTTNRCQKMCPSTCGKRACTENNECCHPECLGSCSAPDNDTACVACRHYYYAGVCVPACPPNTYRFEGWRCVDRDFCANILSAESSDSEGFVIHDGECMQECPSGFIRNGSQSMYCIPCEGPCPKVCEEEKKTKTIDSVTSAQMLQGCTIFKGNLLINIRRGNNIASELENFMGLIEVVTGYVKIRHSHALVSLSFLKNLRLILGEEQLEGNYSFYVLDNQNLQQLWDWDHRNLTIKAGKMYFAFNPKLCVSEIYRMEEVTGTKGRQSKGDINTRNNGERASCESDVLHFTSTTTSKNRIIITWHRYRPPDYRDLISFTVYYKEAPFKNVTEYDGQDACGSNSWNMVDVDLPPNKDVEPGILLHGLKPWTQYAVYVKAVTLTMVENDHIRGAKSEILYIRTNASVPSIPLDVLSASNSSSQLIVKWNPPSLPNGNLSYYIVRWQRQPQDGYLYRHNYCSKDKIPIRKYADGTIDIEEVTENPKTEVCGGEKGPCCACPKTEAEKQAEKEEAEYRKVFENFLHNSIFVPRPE
UniProt P06213, 28-758 limits assumed: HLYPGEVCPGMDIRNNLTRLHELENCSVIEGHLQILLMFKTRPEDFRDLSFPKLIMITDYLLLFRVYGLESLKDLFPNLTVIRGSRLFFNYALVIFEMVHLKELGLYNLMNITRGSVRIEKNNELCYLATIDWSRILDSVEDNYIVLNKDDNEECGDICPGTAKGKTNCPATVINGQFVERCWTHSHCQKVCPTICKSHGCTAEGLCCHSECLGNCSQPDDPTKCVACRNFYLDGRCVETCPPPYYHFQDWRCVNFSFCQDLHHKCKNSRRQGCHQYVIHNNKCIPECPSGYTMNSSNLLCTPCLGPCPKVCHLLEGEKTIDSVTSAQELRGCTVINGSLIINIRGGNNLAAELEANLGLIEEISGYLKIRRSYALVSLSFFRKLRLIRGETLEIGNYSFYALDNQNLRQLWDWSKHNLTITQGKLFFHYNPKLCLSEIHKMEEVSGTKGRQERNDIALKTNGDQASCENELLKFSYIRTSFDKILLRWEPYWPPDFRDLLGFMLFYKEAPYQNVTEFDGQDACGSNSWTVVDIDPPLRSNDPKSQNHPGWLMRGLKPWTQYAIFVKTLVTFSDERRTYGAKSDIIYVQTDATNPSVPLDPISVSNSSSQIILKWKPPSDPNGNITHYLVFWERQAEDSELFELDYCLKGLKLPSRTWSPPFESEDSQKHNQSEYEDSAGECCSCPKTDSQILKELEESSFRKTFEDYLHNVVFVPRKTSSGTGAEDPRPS
UniProt P06213, 763-1382 limits assumed: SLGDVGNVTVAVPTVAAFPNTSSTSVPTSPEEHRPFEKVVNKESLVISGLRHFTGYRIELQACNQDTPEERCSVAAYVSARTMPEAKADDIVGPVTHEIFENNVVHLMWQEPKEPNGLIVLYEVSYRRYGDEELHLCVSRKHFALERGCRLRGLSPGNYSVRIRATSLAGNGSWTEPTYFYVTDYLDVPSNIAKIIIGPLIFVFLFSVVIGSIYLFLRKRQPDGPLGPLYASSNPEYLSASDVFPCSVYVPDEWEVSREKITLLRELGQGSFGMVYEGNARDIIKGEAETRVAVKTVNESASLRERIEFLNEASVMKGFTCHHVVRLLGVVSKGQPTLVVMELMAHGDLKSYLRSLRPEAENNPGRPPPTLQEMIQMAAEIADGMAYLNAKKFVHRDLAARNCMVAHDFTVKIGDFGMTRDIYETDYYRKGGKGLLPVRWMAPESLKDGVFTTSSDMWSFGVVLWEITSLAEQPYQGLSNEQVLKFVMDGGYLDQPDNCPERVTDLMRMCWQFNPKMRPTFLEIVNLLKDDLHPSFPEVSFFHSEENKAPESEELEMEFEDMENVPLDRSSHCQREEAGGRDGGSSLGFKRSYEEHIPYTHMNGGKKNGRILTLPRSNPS

The target in experiment [1] is human IGF-1 receptor (HIGF-1R) (Homo sapiens, UniProt P08069). Nature of the experiment: 125I-IGF-1 competition binding assay on solubilised purified receptor.
Experiment [2] deals with T1, human insulin receptor (HIR) (Homo sapiens, UniProt P06213).
T1 construct: made in house
Nature of the experiment: 125I-insulin competition binding assay on solubilised purified receptor.

The structures appear in SMILES notation. Read-outs that look alike come from different tables or passages of the source.

Consider `CC(C)C[C@H](NC(=O)[C@H](C)NC(=O)[C@H](CO)NC(=O)[C@H](CCC(=O)O)NC(=O)[C@H](Cc1ccccc1)NC(=O)[C@H](Cc1c[nH]c2ccccc12)NC(=O)[C@H](CCC(=O)O)NC(=O)[C@H](Cc1ccc(O)cc1)NC(=O)[C@H](Cc1ccccc1)NC(=O)[C@@H](NC(=O)CNC(=O)CNC(=O)CNC(=O)[C@H](CCCNC(=N)N)NC(=O)[C@@H](N)CCCCN)[C@@H](C)O)C(=O)N[C@@H](CCCNC(=N)N)C(=O)N[C@@H](CCCCN)C(=O)N[C@@H](Cc1c[nH]cn1)C(=O)NCC(=O)N[C@@H](C)C(=O)NCC(=O)N[C@@H](CCCCN)C(=O)N[C@@H](CCCCNC(=O)CCCC[C@@H]1SC[C@@H]2NC(=O)N[C@@H]21)C(N)=O` [Clone D110], for which, in experiment [1], the Kd came out at 1.4 µM.
On to `CC[C@H](C)[C@H](NC(=O)[C@@H](N)CCCCN)C(=O)NCC(=O)NCC(=O)N[C@@H](CCC(N)=O)C(=O)NCC(=O)N[C@@H](CCC(N)=O)C(=O)N[C@@H](Cc1c[nH]cn1)C(=O)N[C@@H](CCC(N)=O)C(=O)N[C@@H](CC(=O)O)C(=O)NCC(=O)N[C@@H](CC(N)=O)C(=O)N[C@@H](Cc1ccccc1)C(=O)N[C@@H](Cc1ccc(O)cc1)C(=O)N[C@@H](CC(=O)O)C(=O)N[C@@H](Cc1c[nH]c2ccccc12)C(=O)N[C@@H](Cc1ccccc1)C(=O)N[C@H](C(=O)N[C@@H](CCC(=O)O)C(=O)N[C@@H](C)C(=O)N[C@@H](CC(C)C)C(=O)N[C@@H](C)C(=O)N[C@@H](CCCCN)C(=O)N[C@@H](CCCCNC(=O)CCCC[C@@H]1SC[C@@H]2NC(=O)N[C@@H]21)C(N)=O)C(C)C` [Clone D101], for which the Kd in experiment [2] (read-out: Kd (µM) HIR) stood at 0.51 µM.
Take `CSCC[C@H](NC(=O)[C@H](CCCNC(=N)N)NC(=O)[C@H](CCC(=O)O)NC(=O)[C@@H]1CCCN1C(=O)[C@H](CC(=O)O)NC(=O)[C@@H](N)CCCCN)C(=O)N[C@@H](CCC(N)=O)C(=O)N[C@@H](CO)C(=O)N[C@@H](CC(=O)O)C(=O)N[C@H](C(=O)NCC(=O)N[C@@H](Cc1ccccc1)C(=O)N[C@@H](Cc1ccc(O)cc1)C(=O)N[C@@H](CCC(=O)O)C(=O)N[C@@H](Cc1c[nH]c2ccccc12)C(=O)N[C@@H](Cc1ccccc1)C(=O)N[C@@H](CCCNC(=N)N)C(=O)N[C@@H](C)C(=O)N[C@@H](C)C(=O)N[C@H](C(=O)NCC(=O)N[C@@H](CCCCN)C(=O)N[C@@H](CCCCNC(=O)CCCC[C@@H]1SC[C@@H]2NC(=O)N[C@@H]21)C(N)=O)C(C)C)C(C)C` [Clone D111]: the Kd in experiment [1] amounted to 3.2 µM.
As to `CSCC[C@H](NC(=O)[C@H](CC(C)C)NC(=O)[C@H](CCCNC(=N)N)NC(=O)[C@H](CC(=O)O)NC(=O)[C@H](CC(C)C)NC(=O)[C@H](C)NC(=O)[C@H](CC(=O)O)NC(=O)[C@@H](N)CC(C)C)C(=O)N[C@@H](CCCNC(=N)N)C(=O)N[C@@H](Cc1ccc(O)cc1)C(=O)N[C@@H](Cc1ccccc1)C(=O)N[C@@H](CCC(=O)O)C(=O)N[C@@H](CCC(=O)O)C(=O)N[C@@H](CCCNC(=N)N)C(=O)N1CCC[C@H]1C(=O)N[C@@H](CO)C(=O)N[C@@H](CC(C)C)C(N)=O` [Clone S173], the Kd in experiment [2] (read-out: HIR affinity) stood at 1.2 µM.
